According to patent publication US20240293352A1 (priority 2021, published 2024):

What was measured:
[1] = system: VSVΔ51-GFP in 786-0 cells; experiment: Fold change in GFP-positive area following VSVΔ51-GFP infection in 786-0 cells; type: cell-based, human
[2] = pH and appearance of vanadyl sulfate solutions; conditions: at the concentration required to enhance oncolytic VSV in vivo

Substance: vanadyl sulfate
- Fold change in GFP ([1]; Concentration 35.1): 11 fold
- Fold change in GFP ([1]; Concentration 52.7): 24 fold
- Fold change in GFP ([1]; Concentration 79.0): 34 fold
- Fold change in GFP ([1]; Concentration 88.0): 43 fold
- Fold change in GFP ([1]; Concentration 118.5): 79 fold
- Fold change in GFP ([1]; Concentration 132.0): 89 fold
- Fold change in GFP ([1]; Concentration 177.8): 119 fold
- Fold change in GFP ([1]; Concentration 198.0): 114 fold
- Fold change in GFP ([1]; Concentration 266.7): 156 fold
- Fold change in GFP ([1]; Concentration 296.0): 178 fold
- Fold change in GFP ([1]; Concentration 400.0): 200 fold
- Fold change in GFP ([1]; Concentration 444.0): 141 fold
- Fold change in GFP ([1]; Concentration 667.0): 119 fold
- Fold change in GFP ([1]; Concentration 1000.0): 76 fold
- Acidity of unbuffered solution and effect on admixed VSV (in words) [2]: highly acidic and leads to rapid inactivation of VSV
